The structures appear in SMILES notation.

Sequences of proteins named here, by UniProt entry; tags and fusion partners are left off. Residues count along the entry.
UniProt O60674, 849-1124: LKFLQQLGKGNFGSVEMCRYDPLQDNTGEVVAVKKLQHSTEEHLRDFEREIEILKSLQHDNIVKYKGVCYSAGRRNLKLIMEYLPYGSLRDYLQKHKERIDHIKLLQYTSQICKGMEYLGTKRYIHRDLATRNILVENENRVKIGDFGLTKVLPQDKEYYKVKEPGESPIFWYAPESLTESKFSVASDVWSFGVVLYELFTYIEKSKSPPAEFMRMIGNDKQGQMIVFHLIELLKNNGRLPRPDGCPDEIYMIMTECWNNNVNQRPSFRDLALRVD
UniProt P23458, 875-1153: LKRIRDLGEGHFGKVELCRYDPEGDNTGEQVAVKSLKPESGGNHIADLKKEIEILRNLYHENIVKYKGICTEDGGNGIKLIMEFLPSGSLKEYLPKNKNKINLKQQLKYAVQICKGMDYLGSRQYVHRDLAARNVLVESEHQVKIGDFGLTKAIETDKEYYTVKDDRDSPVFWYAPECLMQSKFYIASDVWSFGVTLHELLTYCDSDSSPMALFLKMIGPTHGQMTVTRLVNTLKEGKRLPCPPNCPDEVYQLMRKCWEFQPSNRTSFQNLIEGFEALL

Experiment [1] has as its target JAK2 (recombinant purified GST-tagged catalytic domain) (Homo sapiens (Human), UniProt O60674). Description: biochemical.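 Further: biochemical JAK kinase assay with HTRF detection.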
For experiment [2], the target named is JAK1 (recombinant purified GST-tagged catalytic domain) (Homo sapiens (Human), UniProt P23458). Description: biochemical.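 Further: biochemical assay with HTRF read-out.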

In general, IC50 refers to the midpoint of a concentration-inhibition curve. Turning to `N#C[C@H]1C(n2cc(C(N)=O)c(Nc3ccccc3)n2)CCC[C@H]1O` (mixture of isomers) [Example 2-8, 1-[(1S,2R,3R and 1R,2S,3S)-2-cyano-3-hydroxycyclohexyl]-3-(phenylamino)-1H-pyrazole-4-carboxamide], the IC50 in experiment [1] was found to be 635 nM; in experiment [2], 174 nM.
As for `N#C[C@@H]1C(n2cc(C(N)=O)c(Nc3ccccc3)n2)CCC[C@H]1O` (mixture of isomers) [Example 2-9, 1-[(1S,2S,3R and 1R,2R,3S)-2-cyano-3-hydroxycyclohexyl]-3-(phenylamino)-1H-pyrazole-4-carboxamide], the IC50 in experiment [1] worked out at 202 nM; in experiment [2], 16 nM.
`N#C[C@H]1C(n2cc(C(N)=O)c(Nc3ccccc3)n2)CCC[C@@H]1O` (mixture of isomers) [Example 2-10, 1-[(1S,2R,3S and 1R,2S,3R)-2-cyano-3-hydroxycyclohexyl]-3-(phenylamino)-1H-pyrazole-4-carboxamide]: the IC50 stood at 100 nM in experiment [1] and 13 nM in experiment [2].
In the case of `N#C[C@@H]1C(n2cc(C(N)=O)c(Nc3ccccc3)n2)CCC[C@@H]1O` (mixture of isomers) [Example 2-11, 1-[(1S,2S,3S and 1R,2R,3R)-2-cyano-3-hydroxycyclohexyl]-3-(phenylamino)-1H-pyrazole-4-carboxamide], the IC50 in experiment [1] was 49 nM; in experiment [2], 5 nM.
The corresponding values for `N#C[C@H]1CCCC[C@@H]1n1cc(C(N)=O)c(Nc2ccnc(F)c2)n1` (racemic) [Example 17-1, 1-[(1S,2S and 1R,2R)-2-cyanocyclohexyl]-3-[(2-fluoropyridin-4-yl)amino]-1H-pyrazole-4-carboxamide] are 21 nM and 2 nM.
In the same order, the values of `N#C[C@@H]1CCCC[C@@H]1n1cc(C(N)=O)c(Nc2ccc(F)cc2)n1` (racemic) [Example 17-15, 1-[(1S,2R and 1R,2S)-2-cyanocyclohexyl]-3-[(4-fluorophenyl)amino]-1H-pyrazole-4-carboxamide] are 76 nM and 20 nM.
`N#C[C@H]1CCCCC1n1cc(C(N)=O)c(Nc2ccc(F)cc2)n1` (mixture of isomers) [Example 17-18, 1-[(1S,2S and 1R,2R)-2-cyanocyclohexyl]-3-[(4-fluorophenyl)amino]-1H-pyrazole-4-carboxamide]: the half-inhibitory concentration (IC50) in experiment [1] stood at 22 nM; in experiment [2] it was 3 nM.
Consider `N#C[C@H]1CCCCC1n1cc(C(N)=O)c(Nc2ccc3c(c2)C(O)CS3(=O)=O)n1` (mixture of isomers) [Example 17-62, 1-[(1S,2S and 1R,2R)-2-cyanocyclohexyl]-3-[(3-hydroxy-1,1-dioxido-2,3-dihydro-1-benzothiophen-5-yl)amino]-1H-pyrazole-4-carboxamide], for which the IC50 in experiment [1] came to 2 nM; in experiment [2] it was 0.28 nM.
The corresponding values for `C[C@]1(C#N)CC[C@H](O)C[C@@H]1n1cc(C(N)=O)c(Nc2ccc(F)cc2)n1` (racemic) [Example 18, 1-((1S,2S,5S and 1R,2R,5R)-2-Cyano-5-hydroxy-2-methylcyclohexyl)-3-((4-fluorophenyl)amino)-1H-pyrazole-4-carboxamide] are 22 nM and 10 nM.
The corresponding values for `N#C[C@H]1C[C@@H](NCC(F)(F)F)CCC1n1cc(C(N)=O)c(Nc2ccc(S(=O)(=O)C(F)F)cc2)n1` (mixture of isomers) [Example 27-12, 1-{(1S,2S,4S and 1R,2R,4R)-2-cyano-4-[(2,2,2-trifluoroethyl)amino]cyclohexyl}-3-({4-[(difluoromethyl)sulfonyl]phenyl}amino)-1H-pyrazole-4-carboxamide] are 10 nM and 0.3 nM.
On to `N#C[C@H]1CCCC[C@@H]1n1cc(C(N)=O)c(Nc2ccc3c(c2)CN(CC(F)(F)F)C3=O)n1` (single isomer, unassigned) [Example 17-20, 1-[(1S,2S or 1R,2R)-2-cyanocyclohexyl]-3-{[1-oxo-2-(2,2,2-trifluoroethyl)-2,3-dihydro-1H-isoindo1-5-yl]amino}-1H-pyrazole-4-carboxamide], for which the IC50 in experiment [1] was determined as 0.79 nM; in experiment [2], 0.17 nM.
In the case of `N#C[C@@H]1CCCC[C@H]1n1cc(C(N)=O)c(Nc2ccc3c(c2)CN(CC(F)(F)F)C3=O)n1` (single isomer, unassigned) [Example 17-21, 1-[(1R,2R or 1S,2S)-2-cyanocyclohexyl]-3-{[1-oxo-2-(2,2,2-trifluoroethyl)-2,3-dihydro-1H-isoindo1-5-yl]amino}-1H-pyrazole-4-carboxamide], the IC50 in experiment [1] was 4 nM; in experiment [2] it was 1 nM.
On to `CC(C)(c1ccc(Nc2nn([C@@H]3CCCC[C@H]3C#N)cc2C(N)=O)cc1)[C@H](O)C(F)(F)F` (single isomer, unassigned) [Example 17-28, 1-[(1R,2R or 1S,2S)-2-cyanocyclohexyl]-3-({4-[(2S or 2R)-3,3,3-trifluoro-2-hydroxy-1,1-dimethylpropyl]phenyl}amino)-1H-pyrazole-4-carboxamide], for which the results for the IC50 in experiment [1] and in experiment [2] were 30 nM and 3 nM, respectively.
On to `CC(C)(c1ccc(Nc2nn([C@H]3CCCC[C@@H]3C#N)cc2C(N)=O)cc1)[C@H](O)C(F)(F)F` (single isomer, unassigned) [Example 17-29, 1-[(1S,2S or 1R,2R)-2-cyanocyclohexyl]-3-({4-[(2S or 2R)-3,3,3-trifluoro-2-hydroxy-1,1-dimethylpropyl]phenyl}amino)-1H-pyrazole-4-carboxamide], for which the half-inhibitory concentration (IC50) in experiment [1] was 3 nM; in experiment [2], 0.36 nM.
The corresponding values for `CC(C)(c1ccc(Nc2nn([C@@H]3CCCC[C@H]3C#N)cc2C(N)=O)cc1)[C@@H](O)C(F)(F)F` (single isomer, unassigned) [Example 17-30, 1-[(1R,2R or 1S,2S)-2-cyanocyclohexyl]-3-({4-[(2R or 2S)-3,3,3-trifluoro-2-hydroxy-1,1-dimethylpropyl]phenyl}amino)-1H-pyrazole-4-carboxamide] are 1 nM and 0.1 nM.
With `C[C@]1(O)CC[C@H](n2cc(C(N)=O)c(Nc3ccc([C@@](C)(O)C(F)(F)F)cc3)n2)[C@@H](C#N)C1` (single isomer, unassigned) [Example 32-15, 1-[(1S,2S,4S or 1R,2R,4R)-2-cyano-4-hydroxy-4-methylcyclohexyl]-3-({4-[(1R or 1S)-2,2,2-trifluoro-1-hydroxy-1-methylethyl]phenyl}amino)-1H-pyrazole-4-carboxamide], the IC50 in experiment [1] came to 1 nM.
`C=C[C@@]1(O)CC[C@H](n2cc(C(N)=O)c(Nc3ccc(Cl)cc3)n2)[C@@H](C#N)C1` (single isomer, unassigned) [Example 32-16, 3-[(4-chlorophenyl)amino]-1-[(1S,2S,4R or 1R,2R,4S)-2-cyano-4-ethenyl-4-hydroxycyclohexyl]-1H-pyrazole-4-carboxamide]: the IC50 in experiment [1] amounted to 6 nM.
Same read-out and setting: the same measure for `N#C[C@H]1C[C@@H](O)CC[C@@H]1n1cc(C(N)=O)c(Nc2ccc(Cl)c(F)c2)n1` (single isomer, unassigned) [Example 33-3, 3-[(4-chloro-3-fluorophenyl)amino]-1-[(1S,2S,4S or 1R,2R,4R)-2-cyano-4-hydroxycyclohexyl]-1H-pyrazole-4-carboxamide]: 12 nM; for `CC(C)(CF)c1ccc(Nc2nn([C@H]3CC[C@H](O)C[C@@H]3C#N)cc2C(N)=O)cc1` (single isomer, unassigned) [Example 33-21, 1-[(1S,2S,4S or 1R,2R,4R)-2-cyano-4-hydroxycyclohexyl]-3-{[4-(2-fluoro-1,1-dimethylethyl)phenyl]amino}-1H-pyrazole-4-carboxamide]: 6 nM.
Same read-out and setting: next, `N#C[C@H]1C[C@@H](C(=O)N2CCC(F)(F)C2)CC[C@@H]1n1cc(C(N)=O)c(Nc2ccc(Cl)cc2)n1` (single isomer, unassigned) [Example 35-28, 3-[(4-chlorophenyl)amino]-1-{(1S,2S,4S or 1R,2R,4R)-2-cyano-4-[(3,3-difluoropyrrolidin-1-yl)carbonyl]cyclohexyl}-1H-pyrazole-4-carboxamide]: 115 nM; `N#C[C@@H]1C[C@H](C(=O)N2CCC(F)(F)C2)CC[C@H]1n1cc(C(N)=O)c(Nc2ccc(Cl)cc2)n1` (single isomer, unassigned) [Example 35-32, 3-[(4-chlorophenyl)amino]-1-{(1R,2R,4R or 1S,2S,4S)-2-cyano-4-[(3,3-difluoropyrrolidin-1-yl)carbonyl]cyclohexyl}-1H-pyrazole-4-carboxamide]: 60 nM.
Same read-out and setting: next, `N#C[C@@H]1C[C@H](C(=O)N2CC(F)C2)CC[C@H]1n1cc(C(N)=O)c(Nc2ccc(Cl)cc2)n1` (single isomer, unassigned) [Example 35-33, 3-[(4-chlorophenyl)amino]-1-{(1R,2R,4R or 1S,2S,4S)-2-cyano-4-[(3-fluoroazetidin-1-yl)carbonyl]cyclohexyl}-1H-pyrazole-4-carboxamide]: 200 nM.
Take `N#C[C@H]1C[C@@H](C(=O)N2CC(F)C2)CC[C@@H]1n1cc(C(N)=O)c(Nc2ccc(Cl)cc2)n1` (single isomer, unassigned) [Example 35-34, 3-[(4-chlorophenyl)amino]-1-{(1S,2S,4S or 1R,2R,4R)-2-cyano-4-[(3-fluoroazetidin-1-yl)carbonyl]cyclohexyl}-1H-pyrazole-4-carboxamide]: the IC50 in experiment [1] amounted to 23 nM.
`N#C[C@@H]1CCCCC1n1cc(C(N)=O)c(Nc2ccc(S(=O)(=O)CC(F)(F)F)cc2)n1` (single isomer, unassigned) [Example 43-7, 1-[(1S,2S or 1R,2R)-2-cyanocyclohexyl]-3-({4-[(2,2,2-trifluoroethyl)sulfonyl]phenyl}amino)-1H-pyrazole-4-carboxamide]: in experiment [1], the IC50 amounted to 18 nM.
Same read-out and setting: next, `N#C[C@@H]1CCCCC1n1cc(C(N)=O)c(Nc2ccc(S(=O)(=O)CC(F)(F)F)cc2)n1` (single isomer, unassigned) [Example 43-8, 1-[(1S,2S or 1R,2R)-2-cyanocyclohexyl]-3-({4-[(2,2,2-trifluoroethyl)sulfonyl]phenyl}amino)-1H-pyrazole-4-carboxamide]: 1 nM.

(Values after patent publication US8962608B2, “Cycloalkylnitrile pyrazole carboxamides as janus kinase inhibitors” (Merck Sharp & Dohme Corp., priority 2011, dated 2015).)
